Antibody variant affinities, Ab-14 heavy chain, assay B

Target peptide (SARS-CoV-2 spike, HR2 region): PDVDLGDISGINAS

Ab-14 is the parent antibody, in scFv form: VH, then a (GGGGS)3 linker, then VL. The light chain is unchanged in all variants.
VH: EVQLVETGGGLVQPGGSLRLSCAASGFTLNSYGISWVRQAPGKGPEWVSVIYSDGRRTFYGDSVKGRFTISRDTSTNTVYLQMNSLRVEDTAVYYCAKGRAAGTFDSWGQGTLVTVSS
VL: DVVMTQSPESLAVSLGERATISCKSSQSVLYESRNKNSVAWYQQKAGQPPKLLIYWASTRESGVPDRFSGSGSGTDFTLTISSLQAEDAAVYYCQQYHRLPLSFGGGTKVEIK

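The starting antibody came from a phage panning campaign against this peptide. This is the validation round: designs drawn from the data on random variants, tested in the same kind of assay. Group labels follow the data file (Ctrl: baseline library sampled from a position-specific scoring matrix, with some repeated check sequences; Rand: our label for a block that the file lists under HC and that is probably the random mutants of the ten best first-round binders; En: ensemble of fine-tuned language models; GP: Gaussian process model; GPLM: also part of the Gaussian process libraries; HC: hill climbing; Gen: genetic algorithm; Gibbs: Gibbs sampling; a sequence that several methods proposed may carry one label only). The assay is AlphaSeq: two haploid yeast populations carry antibody and antigen on their surface. The frequency of each diploid, read from paired DNA barcodes, reflects how well the two displayed proteins bind. Scores were corrected for input abundance and mapped to Kd with protein pairs of known affinity run in the same pool. The assay was run in six technical replicates.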

Substitutions are numbered in sequence along the VH above, starting at 1 (not Kabat).
Variants here have at most six changes.
The Kd shown is the geometric mean over detected replicates; a lower Kd is a better binder.
An entry "no signal" has no value in the source: the pair was not observed among the diploids in any replicate. This suggests poor binding but is not conclusive.

With T28N F105I [Ctrl] the result was no signal (0 of 6 replicates). With T28V S31D F59W [GP_HC] the result was 1.3 µM (1 of 6 replicates). Variant T28D S107W [Ctrl] showed 63 nM (2 of 6 replicates). Variant G99D A101P [Ctrl] showed no signal (0 of 6 replicates). With T28D G61V R100K A101E [GP_Gen] the result was 500 pM (6 of 6 replicates). Variant T28D G61S S63R A101T [GP_Gen] showed 1.7 nM (6 of 6 replicates).

Variant G26T S31M G61D K65R [Ctrl] gave 380 pM (6 of 6 replicates). With T28E G61Q A101T S107Q [GP_Gibbs] the result was 1.4 nM (6 of 6 replicates). Variant N30D A101V [GPLM_Gen] gave 2.6 nM (6 of 6 replicates). With T28D F59A G61D R100Q [GP_HC] the result was 600 pM (6 of 6 replicates). Variant S31E G61T R100E A101G [GPLM_HC] gave 8.7 nM (2 of 6 replicates). For T28E R100Q A101T S107L [GP_Gen], the assay gave 980 pM (6 of 6 replicates).

Variant T28E G61A S63E A101T [GPLM_Gen] showed 6.0 nM (6 of 6 replicates). With T28E A101L S107K [GP_Gibbs] the result was 32 nM (4 of 6 replicates). Variant G26K T28S S31E A102P [Ctrl] gave 8.7 nM (1 of 6 replicates). Variant T28Q D62L [Ctrl] gave no signal (0 of 6 replicates). For N30E S31L A101I [Ctrl], the assay gave 5.5 nM (1 of 6 replicates). With S63K S107V [Ctrl] the result was 6.7 nM (2 of 6 replicates).

Variant F27L G103Q [Ctrl] showed no signal (0 of 6 replicates). Variant T28E S53A D106C [GP_Gibbs] gave 45 nM (1 of 6 replicates). Variant G61I R100Q A101V T104K [GP_HC] gave no signal (0 of 6 replicates). Variant T28S S31E G61T A101E S107V [GP_HC] gave 160 pM (6 of 6 replicates). With G61S R100E [Ctrl] the result was 2.3 nM (6 of 6 replicates). With T28S F59A G61S R100K [GP_Gibbs] the result was 500 pM (6 of 6 replicates).

For R56K G61S S63D R100Q S107A [GP_Gibbs], the assay gave 7.5 nM (5 of 6 replicates). With G61H G99R R100D [Ctrl] the result was 11 nM (1 of 6 replicates). For T28E G61D R100Q [GPLM_Gen], the assay gave 18 nM (6 of 6 replicates). For T28S S31E A101I S107T [GPLM_Gen], the assay gave 660 pM (6 of 6 replicates). Variant T28S S63A A101T [GPLM_Gen] showed 3.0 nM (6 of 6 replicates). Variant T28S S63Q R100Q S107T [GP_Gibbs] gave 15 nM (6 of 6 replicates).

With S63N S107T [Ctrl] the result was 71 nM (3 of 6 replicates). With F27E D106E [Ctrl] the result was 30 nM (5 of 6 replicates). Variant S31E G61S R100E A101Q [GP_HC] gave 3.5 nM (6 of 6 replicates). Variant T28S G61D A101V [GPLM_Gen] gave 1.7 nM (6 of 6 replicates). With T28S G61T R100H [GPLM_Gen] the result was 6.0 nM (5 of 6 replicates). With S31D D106T S107L [GP_HC] the result was no signal (0 of 6 replicates).

With S31E G61T A101T S107K [GPLM_HC] the result was 350 pM (6 of 6 replicates). Variant T28V S31E G61S A102G [GP_HC] showed 85 nM (5 of 6 replicates). Variant F27E S53A [GPLM_Gen] showed 2.1 nM (6 of 6 replicates). Variant G61S R100K T104I S107T [GP_HC] gave no signal (0 of 6 replicates). For G26Q T28S G61A R100N A101V [GP_Gibbs], the assay gave 1.7 nM (6 of 6 replicates). For T28N S31E S53A G61S R100E A101T [En_HC], the assay gave 520 pM (6 of 6 replicates).

With N30D G61D R100Q A101L F105S [Rand] the result was no signal (0 of 6 replicates). Variant S31E S63A A101T S107T [GP_Gen] showed 1.8 nM (6 of 6 replicates).

The authors' rule: three or more of the six replicates give a measured affinity, fewer mean a poor binder.
As a blank, each scFv also met three strains without target: over all heavy chain designs, 1% of these pairings were detected, typically at 120 nM and seldom below 7.0 nM.
A sequence measured in both rounds can read differently, since the two assays cover different ranges.

Values reported by Li et al. 2023, doi:10.1038/s41467-023-39022-2 (FLAb copy).